According to patent US20070258988A1:

How the values were obtained:
[1] = target: hMOR-1Y (human) (UniProt P35372); experiment: competition against [3H]DAMGO (~1 nM), membranes of stable CHO transfectants
[2] = target: rMOR-1 (no Exon 4) (rat) (UniProt P33535); experiment: as above
[3] = target: rMOR-1 (rat) (UniProt P33535); experiment: as above
[4] = target: rMOR-1A (rat); experiment: as above
[5] = target: rMOR-1 (no Exon 4) (rat) (UniProt P33535); experiment: cell-based or functional assay
[6] = target: rMOR-1 (rat) (UniProt P33535); experiment: cell-based or functional assay
[7] = target: rMOR-1C1 (rat); experiment: cell-based or functional assay
[8] = target: rMOR-1A (rat); experiment: cell-based or functional assay
[9] = target: hMOR-1B2 (human) (UniProt P35372); experiment: competition against [3H]DAMGO (~1 nM), membranes of stable CHO transfectants
[10] = target: hMOR-1B3 (human) (UniProt P35372); experiment: as above
[11] = target: hMOR-1B4 (human) (UniProt P35372); experiment: as above
[12] = target: hMOR-1A (human); experiment: as above
[13] = target: hMOR-1B5 (human) (UniProt P35372); experiment: as above
[14] = target: rMOR-1C1 (rat); experiment: as above
[15] = target: rMOR-1D (rat); experiment: as above
[16] = target: hMOR-1 (human) (UniProt P35372); experiment: as above

Row | Ki [1] | Ki [9] | Ki [10] | Ki [11] | Ki [12] | Ki [13] | Ki [14] | Ki [15] | Ki [16] | Substance | Ki [2] | Ki [3] | Ki [4] | EC50 (nM), stimulation of [35S]GTPγS binding [5] | EC50 (nM), stimulation of [35S]GTPγS binding [6] | EC50 (nM), stimulation of [35S]GTPγS binding [7] | EC50 (nM), stimulation of [35S]GTPγS binding [8]
1 | 6.5 nM |  |  |  |  |  |  |  |  | DADLE (peptide) |  |  |  |  |  |  | 
2 |  |  |  |  |  |  |  |  |  | Endomorphin 1 (peptide) | 4.4 nM | 4.1 nM | 6.5 nM | 114 nM | 14 nM | 54 nM | 15 nM
3 | 9.4 nM | 19.9 nM | 6.3 nM | 22.5 nM | 5.6 nM | 9.6 nM | 10.1 nM | 7.5 nM | 34.1 nM | Endomorphin 2 (peptide) | 9.1 nM |  |  |  |  |  | 
